From ChEMBL document CHEMBL1938343, “Lead optimisation of selective non-zinc binding inhibitors of MMP13. Part 2” (Bioorg Med Chem Lett, 2012)

Protein sequences, listed by entry. Tags and fused reporters are not part of them.
UniProt P05177, whole entry: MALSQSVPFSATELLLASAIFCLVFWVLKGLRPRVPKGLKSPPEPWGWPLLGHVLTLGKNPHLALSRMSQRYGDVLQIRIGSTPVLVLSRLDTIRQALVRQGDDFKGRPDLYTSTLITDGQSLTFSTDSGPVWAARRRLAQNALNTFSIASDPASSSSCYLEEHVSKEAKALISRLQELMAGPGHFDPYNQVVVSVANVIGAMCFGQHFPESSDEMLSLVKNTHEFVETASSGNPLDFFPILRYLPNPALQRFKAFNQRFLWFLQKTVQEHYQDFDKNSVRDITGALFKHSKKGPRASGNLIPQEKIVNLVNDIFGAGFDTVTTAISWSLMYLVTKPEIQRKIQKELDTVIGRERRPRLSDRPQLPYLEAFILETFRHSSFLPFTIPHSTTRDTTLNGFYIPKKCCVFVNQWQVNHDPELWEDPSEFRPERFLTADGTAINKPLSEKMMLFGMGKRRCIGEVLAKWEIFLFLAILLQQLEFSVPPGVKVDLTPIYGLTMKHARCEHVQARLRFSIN

Key:
[1] = target: Collagenase 3 (Homo sapiens, UniProt P45452); assay: Inhibition of recombinant human MMP13 using Mca-Pro-cyclohexyl-Ala-Gly-Nva-His-Ala- Dap(Dnp)-NH2 as substrate by fluorometric analysis
[2] = target: T1, Interstitial collagenase (Homo sapiens, UniProt P03956); assay: Inhibition of MMP1 using Mca-Pro-cyclohexyl-Ala-Gly-Nva-His-Ala- Dap(Dnp)-NH2 as substrate by fluorometric analysis
T1 sequence (P03956 whole entry): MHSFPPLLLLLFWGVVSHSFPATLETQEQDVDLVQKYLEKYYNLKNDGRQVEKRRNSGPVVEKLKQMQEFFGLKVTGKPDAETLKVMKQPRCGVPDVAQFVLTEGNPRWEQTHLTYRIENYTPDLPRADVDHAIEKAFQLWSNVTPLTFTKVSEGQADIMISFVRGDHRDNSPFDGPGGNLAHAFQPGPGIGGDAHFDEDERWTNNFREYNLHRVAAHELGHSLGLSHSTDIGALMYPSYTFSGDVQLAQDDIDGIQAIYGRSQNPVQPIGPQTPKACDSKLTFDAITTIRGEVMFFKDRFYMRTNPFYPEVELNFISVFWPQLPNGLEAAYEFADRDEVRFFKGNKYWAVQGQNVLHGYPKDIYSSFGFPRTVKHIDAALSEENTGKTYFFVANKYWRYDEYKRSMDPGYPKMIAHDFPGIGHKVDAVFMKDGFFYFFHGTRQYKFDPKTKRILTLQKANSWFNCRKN

[3] = target: Cytochrome P450 1A2 (Homo sapiens, UniProt P05177); assay: Inhibition of CYP1A2; assay type: ADME

Row | SMILES | IC50 [1] [µM] | IC50 [2] [µM] | IC50 [3] [µM]
1 | O=C(NC1CCCS(=O)(=O)C1)c1ccc(Oc2ccc(C#C[C@]3(O)CN4CCC3CC4)cc2)cc1 (single isomer, unassigned; diastereomer 1) | 0.037 | – | –
2 | CN1CCC(NC(=O)c2ccc(Oc3ccc(C#C[C@]4(O)CN5CCC4CC5)cc3)cc2)CC1 | – | > 10 | > 10
